Results on 54 compounds are retold here after PubChem BioAssay AID1529 (NMMLSC, 2009).

Chains of the proteins cited; added tags and fusions are not shown.
UniProt Q99759, whole entry: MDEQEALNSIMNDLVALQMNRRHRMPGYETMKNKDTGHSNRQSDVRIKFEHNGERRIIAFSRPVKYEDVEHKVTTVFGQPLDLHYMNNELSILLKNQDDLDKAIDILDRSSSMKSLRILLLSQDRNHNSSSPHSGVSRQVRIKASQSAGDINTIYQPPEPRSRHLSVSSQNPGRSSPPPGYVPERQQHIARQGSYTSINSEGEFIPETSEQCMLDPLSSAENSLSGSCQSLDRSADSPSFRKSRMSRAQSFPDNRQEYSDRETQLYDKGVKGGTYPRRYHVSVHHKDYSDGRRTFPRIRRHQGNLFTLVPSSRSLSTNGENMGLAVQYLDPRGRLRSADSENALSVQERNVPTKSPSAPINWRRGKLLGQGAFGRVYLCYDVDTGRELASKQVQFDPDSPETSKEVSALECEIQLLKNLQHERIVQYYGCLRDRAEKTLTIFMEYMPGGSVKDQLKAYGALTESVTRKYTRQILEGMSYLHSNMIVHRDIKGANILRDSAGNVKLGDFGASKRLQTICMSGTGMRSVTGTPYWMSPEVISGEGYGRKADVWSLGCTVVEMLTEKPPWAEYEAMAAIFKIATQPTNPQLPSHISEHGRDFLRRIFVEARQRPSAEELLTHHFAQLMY

The list shows a part of the results, in another mix than the full data. Active and inactive are the calls of the source.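 Rule for the calls: active = binding response more than 3 SD above or below the average of its plate-row segment, actives on both sides; inconclusive = wells at one plate position flagged as instrument error; inactive = the rest.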

This experiment addresses Mitogen-activated protein kinase kinase kinase 3 (Homo sapiens) (UniProt Q99759). Briefly: compounds raising or lowering MEK5 association with MEKK3 PB1 – biochemical, wildtype MEKK3, multiplex bead flow cytometry, Alexa488-MEK5, primary screen (AID 1529).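 Note: Alexa488 bead fluorescence after subtracting the streptavidin-only scavenger bead signal.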 Particulars: bead-based flow cytometry, Alexa488-MEK5 binding to MEKK3; at 10 µM; actives lie on both sides; 0 = blocked by unlabeled MEK5, 100 = vehicle. (In flow cytometry, cells or beads pass a laser one at a time.)
`CCOC(=O)N1CCC(Nc2cccc(C)c2)CC1`: the binding response (% of control) is inactive: 107%.
As for `COc1cc(C(=O)NCC2(N(C)C)CCCCC2)ccc1OC(F)F`, the binding response (% of control) is inactive: 99%.
The value for `Cc1ccc(OCC(C)C)c(CN(CCCl)CCCl)c1` was inactive: 104%; that for `O=C(NCC1(N2CCCCC2)CCCCC1)c1ccc(F)cc1` was inactive: 100%.
As for `CCOC(=O)N1CCC(Nc2ccc(F)cc2)CC1`, the binding response (% of control) is inactive: 97%.
For `COc1ccc(NC2CCN(CCc3ccccc3)CC2)c(OC)c1`, the binding response (% of control) was inactive: 101%.
Consider `CCOc1ccc(C)cc1CN(CCCl)CCCl`, for which the binding response (% of control) is inactive: 95%.
Next, `CCOC(=O)N1CCC(Nc2ccc(OC)cc2)CC1`: inactive: 106%; `N#CC1(Nc2ccccc2)CCN(Cc2ccccc2)CC1`: inactive: 105%.
The value for `O=C(OC1CN2CCC1CC2)C1c2ccccc2Oc2ccccc21` (centres undefined) was inactive: 107%; that for `O=C(NCC1(N2CCOCC2)CCCCC1)c1cc2ccccc2o1` was inactive: 101%; that for `Cc1cc(C)cc(N(C(=O)c2ccccc2)C2CCN(C(=O)OC(C)(C)C)CC2)c1` was inactive: 107%.
Next, `CSc1ccccc1C(=O)NCC1(N2CCCCC2)CCCCC1`: inactive: 101%.
For `O=C(NCC1(N2CCCCC2)CCCCC1)c1ccc(=O)[nH]c1`, the binding response (% of control) was inactive: 106%.
For `COc1ccc(C(=O)NCC2(N3CCCCC3)CCCCC2)cc1`, the binding response (% of control) is inactive: 102%.
For `COc1ccc(C(=O)NCC2(N3CCCCC3)CCCCC2)c(OC)c1OC`, the binding response (% of control) was inactive: 103%.
Take `CC(C)(C)OC(=O)N1CCC(N(C(=O)c2ccccc2)c2ccc(F)cc2)CC1`: the binding response (% of control) was inactive: 99%.
Turning to `CCCOc1ccc(C(=O)NCC2(N(C)C)CCCCC2)cc1OC`, the binding response (% of control) is inactive: 100%.
On to `CN1CCC(Nc2cccc(F)c2)CC1`, for which the binding response (% of control) is inactive: 95%.
The value for `COc1cc(OC)c(C(=O)NCC2(N(C)C)CCCCC2)cc1OC` was inactive: 103%; that for `COc1ccc(CN(CCCl)CCCl)cc1Cl` was inactive: 101%; that for `CN(C)c1cccc(C(=O)NCC2(N3CCCCC3)CCCCC2)c1` was inactive: 105%.
Take `CC(C)c1ccc(NC2CCN(C(=O)OC(C)(C)C)CC2)cc1`: the binding response (% of control) was inactive: 99%.
Consider `COc1ccc(NC2CCN(C(=O)OC(C)(C)C)CC2)cc1`, for which the binding response (% of control) is inactive: 90%.
Turning to `CN1CCN(CCOC(=O)C(O)(c2ccccc2)c2ccccc2)CC1`, the binding response (% of control) is inactive: 110%.
Take `O=C(NCC1(N2CCOCC2)CCCCC1)c1cc(=O)[nH]c2ccccc12`: the binding response (% of control) was inactive: 101%.
For `COc1cc(C(=O)NCC2(N3CCCCC3)CCCCC2)ccc1OC(F)F`, the binding response (% of control) is inactive: 103%.
With `O=C(NCC1(N2CCCCC2)CCCCC1)c1cccc(C(F)(F)F)c1`, the binding response (% of control) is inactive: 97%.
The value for `O=C(NCC1(N2CCCCC2)CCCCC1)c1cccc([N+](=O)[O-])c1` was inactive: 99%; that for `CCN1CCC(Nc2ccc(Cl)cc2)CC1` was inactive: 100%; that for `N#CC1(Nc2ccccc2)CCN(CCc2ccccc2)CC1` was inactive: 108%.
As for `O=C(NCC1(N2CCCCC2)CCCCC1)c1ccc(OC(F)F)cc1`, the binding response (% of control) was inactive: 97%.
Next, `c1ccc(CN2CCC(Nc3ccccc3)CC2)cc1`: inactive: 95%.
Consider `CCCN1CCC(Nc2cc(OC)cc(OC)c2)CC1`, for which the binding response (% of control) is inactive: 100%.
The value for `CN(C)C1(CNC(=O)c2cccc(C#N)c2)CCCCC1` was inactive: 102%; that for `CC(C)(C)OC(=O)N1CCC(N(C(=O)c2ccccc2)c2ccc(Cl)cc2)CC1` was inactive: 94%; that for `N#Cc1ccc(C(=O)NCC2(N3CCCCC3)CCCCC2)cc1` was inactive: 104%.
For `O=C(OC1CN2CCC1CC2)C1c2ccccc2C=Cc2ccccc21` (centres undefined), the binding response (% of control) was inactive: 113%.
Next, `CCOC(=O)N1CCC(Nc2ccc(C)cc2)CC1`: inactive: 104%.
As to `COc1ccc(C(=O)NCC2(N3CCOCC3)CCCCC2)cc1OC`, the binding response (% of control) was inactive: 93%.
Regarding `CCCOc1ccc(C)cc1CN(CCCl)CCCl`, the binding response (% of control) is inactive: 89%.
In the case of `CN1CCC(Nc2ccc(Cl)cc2)CC1`, the binding response (% of control) was inactive: 101%.
`CCC(CO)(C(=O)OC1CN2CCC1CC2)c1ccccc1` (centres undefined): the binding response (% of control) was inactive: 93%.
Next, `COc1cccc(C(=O)N(c2cc(C)cc(C)c2)C2CCN(C(=O)OC(C)(C)C)CC2)c1`: inactive: 102%; `COc1cc(OC)cc(C(=O)NCC2(N3CCOCC3)CCCCC2)c1`: inactive: 98%; `CCCOc1ccc(C(=O)NCC2(N(C)C)CCCCC2)cc1`: inactive: 105%.
Regarding `CC(C)(C)OC(=O)N1CCC(Nc2ccccc2)CC1`, the binding response (% of control) is inactive: 102%.
For the compound `O=C(O)C1(Nc2ccccc2)CCN(Cc2ccccc2)CC1`, the binding response (% of control) is inactive: 95%.
Turning to `CCOc1ncccc1C(=O)NCC1(N2CCOCC2)CCCCC1`, the binding response (% of control) is inactive: 98%.
In the case of `CN1CCC(Nc2ccc(F)c(Cl)c2)CC1`, the binding response (% of control) was inactive: 100%.
As to `CN(C)c1ccc(C(=O)NCC2(N3CCCCC3)CCCCC2)cc1`, the binding response (% of control) was inactive: 98%.
As for `CCN1CCC(Nc2cccc(F)c2)CC1`, the binding response (% of control) was inactive: 93%.
Consider `Fc1ccccc1NC1CCN(Cc2ccccc2)CC1`, for which the binding response (% of control) is inactive: 80%.
In the case of `COc1cc(OC)cc(C(=O)NCC2(N3CCCCC3)CCCCC2)c1`, the binding response (% of control) was inactive: 98%.
